Results from ChEMBL document CHEMBL1914329, “2D MI-DRAGON: a new predictor for protein-ligands interactions and theoretic-experimental studies of US FDA drug-target network, oxoisoaporphine inhibitors for MAO-A and human parasite proteins” (Eur J Med Chem, 2011).

Species on record: Homo sapiens
Assay: Selectivity index, ratio of IC50 for human recombinant MAO-B to IC50 for human recombinant MAO-A

Ratio IC50: > 120000
SMILES: COc1cc2c3c(nccc3c1)-c1ccccc1C2=O
